ChEMBL document CHEMBL1148359, “Design, synthesis, and biological evaluation of 2,4-diamino-5-methyl-6-substituted-pyrrolo[2,3-d]pyrimidines as dihydrofolate reductase inhibitors” (J Med Chem, 2004)

Columns and labels:
Dihydrofolate reductase [1] = target: T1, Dihydrofolate reductase (Pneumocystis carinii, UniProt P16184); test: Inhibition of Dihydrofolate reductase from Pneumocystis carinii (Pneumocystis carinii)
T1 sequence (P16184 whole entry): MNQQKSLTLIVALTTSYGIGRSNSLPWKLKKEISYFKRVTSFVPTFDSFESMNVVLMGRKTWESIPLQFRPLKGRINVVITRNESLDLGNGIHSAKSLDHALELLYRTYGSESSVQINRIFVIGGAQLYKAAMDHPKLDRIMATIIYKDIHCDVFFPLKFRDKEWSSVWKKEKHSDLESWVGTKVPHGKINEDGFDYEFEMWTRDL

Dihydrofolate reductase [2] = target: T2, Dihydrofolate reductase (Mycobacterium avium, UniProt O30463); test: Inhibitory concentration against Dihydrofolate reductase from Mycobacterium avium (Mycobacterium avium)
T2 sequence (O30463 whole entry): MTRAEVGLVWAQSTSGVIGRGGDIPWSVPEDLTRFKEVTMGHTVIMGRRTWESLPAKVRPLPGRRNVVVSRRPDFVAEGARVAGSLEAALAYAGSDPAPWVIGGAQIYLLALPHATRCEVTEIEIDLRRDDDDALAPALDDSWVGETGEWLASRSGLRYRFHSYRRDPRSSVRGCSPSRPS

| SMILES | IC50 (Dihydrofolate reductase [1]) | IC50 (Dihydrofolate reductase [2]) |
| --- | --- | --- |
| Cc1c(Sc2cccc(Cl)c2)[nH]c2nc(N)nc(N)c12 | 42.9 µM |  |
| COc1ccc(OC)c(Sc2[nH]c3nc(N)nc(N)c3c2C)c1 | 14.6 µM | 0.1 µM |
